The numbers were not newly measured in publication PMC4263031 (Bioconjugate chemistry, 2012), which cites them from elsewhere.

Chains of the proteins cited; added tags and fusions are not shown. Lines headed by an entry give the natural chain unless they say otherwise; changes in a name come on top.
UniProt P30680: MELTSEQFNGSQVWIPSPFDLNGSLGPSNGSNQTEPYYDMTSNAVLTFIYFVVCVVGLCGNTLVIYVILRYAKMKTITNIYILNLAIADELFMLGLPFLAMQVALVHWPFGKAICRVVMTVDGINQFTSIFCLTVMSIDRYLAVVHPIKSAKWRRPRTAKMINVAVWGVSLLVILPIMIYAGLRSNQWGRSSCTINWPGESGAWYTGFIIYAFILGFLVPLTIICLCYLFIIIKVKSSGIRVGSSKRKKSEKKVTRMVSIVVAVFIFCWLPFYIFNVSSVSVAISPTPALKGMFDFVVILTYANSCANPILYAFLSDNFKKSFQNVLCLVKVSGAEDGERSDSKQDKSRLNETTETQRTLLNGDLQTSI

In this series the target is SSTr2 (Rattus norvegicus, UniProt P30680). Particulars: AR42J membranes.

For “^64Cu-CB-TE2A-Y3-TATE: 64Cu-labeled CB-TE2A chelator conjugated to somatostatin analogue Y3-TATE; previously published comparator”, the Kd (usually the concentration at which binding is half-saturated) was 1.7 nM.
